# Molecular target: JAK2 (Homo sapiens (Human), UniProt O60674)
# Chains of the proteins cited; added tags and fusions are not shown. Lines headed by an entry give the natural chain unless they say otherwise; changes in a name come on top.
# UniProt O60674: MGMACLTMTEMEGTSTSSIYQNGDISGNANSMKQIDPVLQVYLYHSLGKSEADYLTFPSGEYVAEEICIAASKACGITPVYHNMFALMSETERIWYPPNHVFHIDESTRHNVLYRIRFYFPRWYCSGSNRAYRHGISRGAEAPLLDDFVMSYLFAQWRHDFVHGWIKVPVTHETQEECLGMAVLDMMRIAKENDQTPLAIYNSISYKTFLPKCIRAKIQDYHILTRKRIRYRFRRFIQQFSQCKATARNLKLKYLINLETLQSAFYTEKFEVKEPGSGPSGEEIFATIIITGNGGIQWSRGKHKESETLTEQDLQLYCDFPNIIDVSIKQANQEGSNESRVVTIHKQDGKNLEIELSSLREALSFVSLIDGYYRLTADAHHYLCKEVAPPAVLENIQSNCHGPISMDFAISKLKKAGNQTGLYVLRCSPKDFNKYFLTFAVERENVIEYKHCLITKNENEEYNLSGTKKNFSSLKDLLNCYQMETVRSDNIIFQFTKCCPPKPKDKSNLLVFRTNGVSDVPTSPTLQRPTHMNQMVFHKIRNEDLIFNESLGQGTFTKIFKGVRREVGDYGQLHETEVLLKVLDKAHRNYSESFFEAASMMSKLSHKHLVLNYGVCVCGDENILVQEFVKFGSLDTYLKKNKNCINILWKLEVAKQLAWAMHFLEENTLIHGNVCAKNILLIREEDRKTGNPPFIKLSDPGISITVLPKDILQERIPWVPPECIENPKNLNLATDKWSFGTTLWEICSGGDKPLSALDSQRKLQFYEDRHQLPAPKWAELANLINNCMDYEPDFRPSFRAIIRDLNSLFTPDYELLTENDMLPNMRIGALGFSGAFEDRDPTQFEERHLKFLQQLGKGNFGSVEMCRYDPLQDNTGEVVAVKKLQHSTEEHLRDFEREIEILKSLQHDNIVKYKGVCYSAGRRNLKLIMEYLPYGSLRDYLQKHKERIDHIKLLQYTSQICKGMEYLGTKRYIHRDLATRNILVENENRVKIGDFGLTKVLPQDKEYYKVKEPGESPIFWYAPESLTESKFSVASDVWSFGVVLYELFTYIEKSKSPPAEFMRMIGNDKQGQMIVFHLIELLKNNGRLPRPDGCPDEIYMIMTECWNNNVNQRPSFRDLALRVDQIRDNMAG
# Assay: KINOMEscan kinase binding assay (DiscoveRx)
# Description: Kinase binding assays were performed at DiscoveRx using the general KINOMEscan Kd Protocol (Fabian, M. A. et al., “A small molecule-kinase interaction map for clinical kinase inhibitors,” Nat. Biotechnol. 2005, 23(3):329-36). For most assays, kinase-tagged T7 phage strains were prepared in an E. coli host derived from the BL21 strain. E. coli were grown to log-phase and infected with T7 phage and incubated with shaking at 32° C. until lysis. The lysates were centrifuged and filtered to remove cell debris. The remaining kinases were produced in HEK-293 cells and subsequently tagged with DNA for qPCR detection. Streptavidin-coated magnetic beads were treated with biotinylated small molecule ligands for 30 minutes at room temperature to generate affinity resins for kinase assays. The liganded beads were blocked with excess biotin and washed with blocking buffer (SeaBlock (Pierce), 1% BSA, 0.05% Tween 20, 1 mM DTT) to remove unbound ligand and to reduce nonspecific binding. […] All reactions were performed in polystyrene 96-well plates in a final volume of 0.135 mL. The assay plates were incubated at room temperature with shaking for 1 hour and the affinity beads were washed with wash buffer (1×PBS, 0.05% Tween 20). […] The kinase concentration in the eluates was measured by qPCR.
structure (smiles),measurement,value
"C[C@@H]1CNC(=O)c2cnn3ccc(nc23)N[C@H](C)c2cc(F)ccc2O1 [Example 92, (7R,13R)-11-fluoro-7,13-dimethyl-6,7,13,14-tetrahydro-1,15-ethenopyrazolo[4,3-f][1,4,8,10]benzoxatriazacyclotridecin-4(5H)-one]",Kd,0.12 nM

# Source: patent publication US10246466B2, “Diaryl macrocycles as modulators of protein kinases” (TP THERAPEUTICS, INC., priority 2014, dated 2019)
